Source: patent US7045532B2 (Millennium Pharmaceuticals, Inc., priority 1999, dated 2006)

Protein sequences, listed by entry. Tags and fused reporters are not part of them. Residues count along the entry.
UniProt Q9BYF1, 18-739: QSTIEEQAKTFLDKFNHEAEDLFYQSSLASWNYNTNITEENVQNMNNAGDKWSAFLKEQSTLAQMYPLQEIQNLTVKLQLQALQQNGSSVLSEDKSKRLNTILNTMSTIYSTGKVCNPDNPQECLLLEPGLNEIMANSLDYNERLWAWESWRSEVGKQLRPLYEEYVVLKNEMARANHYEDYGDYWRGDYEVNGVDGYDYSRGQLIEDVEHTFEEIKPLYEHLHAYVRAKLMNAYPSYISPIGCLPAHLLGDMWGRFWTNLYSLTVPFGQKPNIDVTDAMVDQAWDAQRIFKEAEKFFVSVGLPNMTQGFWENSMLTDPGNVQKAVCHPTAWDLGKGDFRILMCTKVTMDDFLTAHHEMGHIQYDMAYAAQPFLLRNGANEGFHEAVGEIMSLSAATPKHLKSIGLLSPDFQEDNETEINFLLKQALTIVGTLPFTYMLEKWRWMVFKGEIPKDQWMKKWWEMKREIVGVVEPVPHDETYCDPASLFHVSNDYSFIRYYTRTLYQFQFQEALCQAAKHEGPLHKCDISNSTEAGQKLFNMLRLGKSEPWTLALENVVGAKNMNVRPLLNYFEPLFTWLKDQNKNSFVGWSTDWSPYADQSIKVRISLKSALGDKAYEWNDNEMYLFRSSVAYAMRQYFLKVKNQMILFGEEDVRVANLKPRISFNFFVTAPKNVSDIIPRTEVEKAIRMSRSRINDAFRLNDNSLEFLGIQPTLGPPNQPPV

What was measured:
[1] = Effect on appetite: food consumption in ICR mice
ACE-2 = ACE-2 (Homo sapiens, UniProt Q9BYF1); assay: Kinetic constants for ACE-2 hydrolysis of peptides (reversed phase LC); type: biochemical; parameters: made in house

CC(C)CC(N[C@@H](Cc1cncn1Cc1cc(Cl)cc(Cl)c1)C(=O)O)C(=O)O (single isomer, unassigned) [HE, 2-[1-Carboxy-2-[3-(3,5-dichloro-benzyl)-3H-imidazol-4-yl]-ethylamino)4-methyl-pentanoic acid]
cumulative food consumption ([1]; 100 mg/kg oral, one hour): about 2.22±0.13 g | cumulative food consumption ([1]; 100 mg/kg oral, six hours): about 5.38±0.41 g | cumulative food consumption ([1]; 100 mg/kg oral, three hours): about 4.06±0.27 g

CC(N)Cc1ccccc1 (centres unmarked) [amphetamine, reference compound]
cumulative food consumption ([1]; 3 mg/kg oral, three hours): about 1.39±0.07 g

angiotensin II (1-8) (DRVYIHPF; listed as Homo sapiens) ["identified as preferred ACE-2 substrates"]
kcat/Km relative to angiotensin I (1-10) (ACE-2): 500 fold
